Measurements taken from patent US20200283491A1.

Chains of the proteins cited; added tags and fusions are not shown. Lines headed by an entry give the natural chain unless they say otherwise; changes in a name come on top.
UniProt P50391: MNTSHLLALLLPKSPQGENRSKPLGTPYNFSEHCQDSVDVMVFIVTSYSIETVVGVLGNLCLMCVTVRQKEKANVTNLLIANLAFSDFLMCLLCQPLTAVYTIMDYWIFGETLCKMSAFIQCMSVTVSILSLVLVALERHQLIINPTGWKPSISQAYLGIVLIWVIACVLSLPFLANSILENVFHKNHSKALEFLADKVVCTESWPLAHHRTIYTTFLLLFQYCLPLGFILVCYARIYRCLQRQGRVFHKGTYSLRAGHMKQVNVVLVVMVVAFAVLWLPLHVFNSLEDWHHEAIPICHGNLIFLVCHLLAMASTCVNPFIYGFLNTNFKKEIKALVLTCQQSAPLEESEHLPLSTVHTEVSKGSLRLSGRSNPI

Target: human Y4 receptor (human) (UniProt P50391)
Test: cell-based or functional assay

Q: “PYY3-36 (from UniProt P10082 31-64) (peptide)” was tested. Which Human isoform potency (EC50 nM), cAMP assay did it give?
A: Its Human isoform potency (EC50 nM), cAMP assay is 137 nM.
